In US4405743A, “Pyrazolylpyrimidine derivatives” (Hokko Chemical Industry Co., Ltd., priority 1981, dated 1983):

Test system: Sphaerotheca friliginea
Assay: Effect of controlling cucumber powdery mildew, Experimental Example 4
Details: in vivo
Experimental: 10 ml of each of test liquids diluted to a predetermined concentration was sprayed over seedlings of a cucumber plant (variety: Sagami Hanpaku) grown up to the first leaf stage which has been soil cultured in an unglazed pot with a diameter of 9 cm in a green house. After allowing to stand overnight, the seedlings were sprayed for inoculation with a spore suspension of Sphaerotheca friliginea. Ten days after the inoculation, the rate of a lesion area (%) was checked and a control value was evaluated from the following equation. The degree of chemical injury against a cucumber plant was determined in the same manner as in Experimental Example.

SMILES: Cc1cc(Oc2ccc(Cl)c(Cl)c2)nc(-n2nc(C)cc2C)n1 [Compound 24]
- Control value: 80%
